Experiment: Human clinical biocomparison study: oral absorption from grazoprevir and Formulation 3 with and without pH-raising medication
Conditions: in vivo, Treatment 2: grazoprevir and Formulation 3 with pH-raising medication, 100 mg grazoprevir/50 mg Compound I, healthy subjects
Procedure: The Formulation 2 spray dried intermediate was blended and roller compacted along with microcrystalline cellulose, lactose, croscarmellose sodium, sodium chloride, colloidal silicon dioxide, and magnesium stearate. Only half of the magnesium stearate was added prior to roller compaction. The second half of the magnesium stearate and the remaining croscarmellose sodium was added after roller compaction and the resulting powder mix was blended further.
The oral absorption obtained from grazoprevir and Formulation 3 with (Treatment 2) and without (Treatment 1) co-administration of a pH-raising medication was evaluated as part of human clinical study.

SMILES: COC(=O)N[C@H](C(=O)N1CCC[C@H]1c1nc(-c2ccc3c(c2)O[C@@H](c2ccccc2)n2c-3cc3cc(-c4c[nH]c([C@@H]5CCCN5C(=O)[C@@H](NC(=O)OC)C(C)C)n4)ccc32)c[nH]1)C(C)C [Compound I, dimethyl N,N′-([(6S)-6-phenylindolo[1,2-c][1,3]benzoxazine-3,10-diyl]bis {1H-imidazole-5,2-diyl-(2S)-pyrrolidine-2,1-diyl[(2S)-3-methyl-l-oxobutane-1,2-diyl]})dicarbamate]
- Cmax: 95.5 nM
